For the test, the target named is T1, HLA-DR DRB4*0101 (human).
T1 chain 1: not shown
T1 chain 2: not shown
Kind of test: radiolabeled-peptide inhibition, purified HLA-DR. The conditions noted are these: remark: other sources report otherwise.

B1: 9019.0048 (peptide)
peptide: PESFDGDPASNTAPL
In the case of B1, the IC50 (as a rule, the concentration needed to halve the response being measured) was 654 nM.

For the origin of these results see patent US20100310640A1.
